According to paper PMC12503259, “Establishment of an in vivo analytical method for detecting total anti-UFH activity and pharmacokinetic study in PS and R15 in rats” (PLOS One, 2025):
Where two headings read alike, the source gives them in different places.

Assay: Pharmacokinetic study in Wistar rats, total anti-heparin activity in plasma (fixed UFH added, residual UFH by anti-FXa kit)
Format: in vivo
Description: Processing of Plasma Samples: 100 μL of the unknown plasma sample was added to 500 μL of 75% methanol (methanol: water = 75:25, v/v) and vortex-mixed for 5 seconds. The mixture was then centrifuged at 12,000 r/min for 10 minutes at 25°C. The supernatant (500 μL) was collected and dried under nitrogen at 60°C. Subsequently, UFH (0.14 U·mL^-1 for PS and 0.15 U·mL^-1 for R15; 120 μL) was added, and the mixture was vigorously shaken at room temperature for 10 minutes. The residual UFH content was measured using the Heparin Anti-FXa assay kit.
The detailed procedure is as follows: Accurately pipette 40 μL of the sample into a 96-well plate. Place the plate in a microplate shaker. Using a multichannel pipette, add 40 μL of reagent R1 and mix by shaking. Incubate at 37 °C for exactly 3 minutes (start timing upon addition of R1; at 50 seconds, begin shaking with the microplate shaker for 1 minute, then place the plate in the incubator). Remove the 96-well plate from the incubator and place it on the open microplate shaker. Using a multichannel pipette, add 40 μL of reagent R2 to each well and incubate at 37 °C for 6 minutes (after adding R2, at 3 minutes and 50 seconds, open the microplate shaker and shake for 4 minutes, then return the plate to the incubator). Remove the 96-well plate from the incubator and place it on the open microplate shaker. Quickly add 40 μL of reagent R3 using a multichannel pipette and shake until 9 minutes and 10 seconds. At 9 minutes and 30 seconds, add 80 μL of 20% acetic acid to each well to terminate the reaction. Measure the absorbance at 405 nm using a microplate reader (Multiskan FC, Thermo Fisher US).
Eight Wistar rats (approximately 250 g; equally divided by sex and acclimatized for 1 week in the animal facility) were used for profiling pharmacokinetics of PS. Each rat was cannulated in carotid artery to collect blood the day before the experiment. PS was injected through the tail vein and blood samples were collected at 0 min, 1 min, 3 min, 5 min, 7 min, 9 min, 11 min, 15 min, 20 min, 30 min, 60 min and 120 min in a tube containing 4% sodium citrate. Plasma was achieved by centrifugation at 8000 r/min for 10 min, and stored in the refrigerator at −80°C. […]
During the analysis of actual samples, a standard curve and a series of calibration standards were established for each analytical batch to determine the concentration of PS and R15 in plasma. The concentrations were plotted on the X-axis, and the data were fitted using Equation (3).
Weighted least squares regression was used for the calculations. The Optical Density (OD) values of the unknown biological samples were substituted into the equation to determine the concentration of PS and R15, respectively.
Pharmacokinetic parameters of PS were calculated by WinNonlin 6.4, and all data were processed by Microsoft Excel 2013 and GraphPad Prism 8.3.

[1] = R15 900 U·kg^-1 single iv tail vein, Wistar rats, Total (male and female), mean ± SD, n = 8
[2] = R15 900 U·kg^-1 single iv tail vein, Wistar rats, female, mean ± SD, n = 4
[3] = R15 900 U·kg^-1 single iv tail vein, Wistar rats, male, mean ± SD, n = 4
[4] = R15 2700 U/kg iv, rat 1# (male), single animal
[5] = R15 2700 U/kg iv, rat 5# (male), single animal
[6] = R15 2700 U/kg iv, rat 8# (male), single animal
[7] = R15 2700 U/kg iv, rat 13# (male), single animal
[8] = R15 2700 U/kg iv, rat 21# (female), single animal
[9] = R15 2700 U/kg iv, rat 22# (female), single animal
[10] = R15 2700 U/kg iv, rat 27# (female), single animal
[11] = R15 2700 U/kg iv, rat 28# (female), single animal
[12] = R15 2700 U·kg^-1 single iv tail vein, Wistar rats, Total (male and female), mean ± SD, n = 8
[13] = R15 2700 U·kg^-1 single iv tail vein, Wistar rats, female, mean ± SD, n = 4
[14] = R15 2700 U·kg^-1 single iv tail vein, Wistar rats, male, mean ± SD, n = 4
[15] = both 300 U·kg^-1 iv, Wistar rats, pooled

## N=C(N)NCCC[C@H](NC(=O)[C@H](CCCNC(=N)N)NC(=O)[C@H](CCCNC(=N)N)NC(=O)[C@H](CCCNC(=N)N)NC(=O)[C@H](CCCNC(=N)N)NC(=O)[C@H](CCCNC(=N)N)NC(=O)[C@H](CCCNC(=N)N)NC(=O)[C@H](CCCNC(=N)N)NC(=O)[C@H](CCCNC(=N)N)NC(=O)[C@H](CCCNC(=N)N)NC(=O)[C@H](CCCNC(=N)N)NC(=O)[C@H](CCCNC(=N)N)NC(=O)[C@H](CCCNC(=N)N)NC(=O)[C@H](CCCNC(=N)N)NC(=O)[C@@H](N)CCCNC(=N)N)C(=O)O [R15]
R15 900 U·kg^-1 single iv tail vein, Wistar rats, Total (male and female), at 1 min, mean ± SD, n = 8
  Cmax: 11.54 ± 1.14 µg/mL
[1]
  AUC: 1030 ± 178 µg·min/mL
  CL: 4.72 ± 0.81 mL/min/kg
  MRT: 1.573 ± 0.3602 h
  T1/2: 1.519 ± 0.2653 h
  Vd: 608 ± 59 mL/kg
[2]
  AUC: 1063 ± 166 µg·min/mL
  CL: 4.50 ± 0.67 mL/min/kg
  Cmax: 11.62 ± 1.02 µg/mL
  MRT: 1.58 ± 0.28 h
  T1/2: 1.552 ± 0.1923 h
  Vd: 599 ± 69 mL/kg
[3]
  AUC: 999 ± 209 µg·min/mL
  CL: 4.95 ± 0.98 mL/min/kg
  Cmax: 11.46 ± 1.41 µg/mL
  MRT: 1.567 ± 0.4735 h
  T1/2: 1.486 ± 0.3528 h
  Vd: 616 ± 56 mL/kg
[4]
  AUC: 1918 min･µg･mL^-1
  CL: 7.96 mL･min^-1･kg^-1
  Cmax: 14.61 µg･mL^-1
  MRT: 3.9907 h
  T1/2: 1.9468 h
  Vd: 1341 mL･kg^-1
[5]
  AUC: 654 min･µg･mL^-1
  CL: 16.21 mL･min^-1･kg^-1
  Cmax: 10.94 µg･mL^-1
  MRT: 1.612 h
  T1/2: 2.478 h
  Vd: 3477 mL･kg^-1
[6]
  AUC: 1251 min･µg･mL^-1
  CL: 12.01 mL･min^-1･kg^-1
  Cmax: 12.70 µg･mL^-1
  MRT: 2.8825 h
  T1/2: 1.62 h
  Vd: 1684 mL･kg^-1
[7]
  AUC: 1141 min･µg･mL^-1
  CL: 11.69 mL･min^-1･kg^-1
  Cmax: 13.51 µg･mL^-1
  MRT: 3.637 h
  T1/2: 4.081 h
  Vd: 4129 mL･kg^-1
[8]
  AUC: 1674 min･µg･mL^-1
  CL: 9.03 mL･min^-1･kg^-1
  Cmax: 15.63 µg･mL^-1
  MRT: 3.9175 h
  T1/2: 2.1312 h
  Vd: 1667 mL･kg^-1
[9]
  AUC: 1224 min･µg･mL^-1
  CL: 11.11 mL･min^-1･kg^-1
  Cmax: 8.27 µg･mL^-1
  MRT: 3.7197 h
  T1/2: 3.2153 h
  Vd: 3091 mL･kg^-1
[10]
  AUC: 1156 min･µg･mL^-1
  CL: 12.28 mL･min^-1･kg^-1
  Cmax: 7.46 µg･mL^-1
  MRT: 2.4073 h
  T1/2: 2.3928 h
  Vd: 2543 mL･kg^-1
[11]
  AUC: 1543 min･µg･mL^-1
  CL: 8.97 mL･min^-1･kg^-1
  Cmax: 10.11 µg･mL^-1
  MRT: 3.6828 h
  T1/2: 3.8835 h
  Vd: 3015 mL･kg^-1
R15 2700 U·kg^-1 single iv tail vein, Wistar rats, Total (male and female), at 1 min, mean ± SD, n = 8
  Cmax: 11.65 ± 2.95 µg/mL
[12]
  AUC: 1320 ± 387 µg·min/mL
  CL: 11.16 ± 2.60 mL/min/kg
  MRT: 3.2312 ± 0.8518 h
  T1/2: 2.7187 ± 0.908 h
  Vd: 2618 ± 987 mL/kg
[13]
  AUC: 1399 ± 249 µg·min/mL
  CL: 10.35 ± 1.63 mL/min/kg
  Cmax: 10.37 ± 3.68 µg/mL
  MRT: 3.4318 ± 0.6907 h
  T1/2: 2.9057 ± 0.799 h
  Vd: 2579 ± 655 mL/kg
[14]
  AUC: 1241 ± 521 µg·min/mL
  CL: 11.97 ± 3.37 mL/min/kg
  Cmax: 12.94 ± 1.55 µg/mL
  MRT: 3.0305 ± 1.053 h
  T1/2: 2.5315 ± 1.092 h
  Vd: 2658 ± 1356 mL/kg
Wistar rats, intravenous infusion 2700 U/kg, time 0 min, mean of individual rats
  Concentration (plasma concentration of R15), Mean±SD: 0.00 µg/mL
Wistar, plasma, R15 900 U/kg iv, 480 min, Mean±SD column (one rat), read-out: plasma concentration
  level at 8 h: 0.43 µg/mL
[15]
  AUC of R15 relative to PS: 18 fold
  MRT of R15 relative to PS: 19 fold
  T1/2 of R15 relative to PS: approximately 13 fold
Both 300 U·kg^-1 iv, Wistar rats, pooled, fraction of PS value
  CL of R15 relative to PS: about 1/20
Both sexes, Wistar, rat, plasma, R15 300 U/kg iv, 1 min, Mean±SD, read-out: plasma concentration
  level at 1 min: 10.9 ± 2.43 µg/mL
Both sexes, Wistar, rat, plasma, R15 300 U/kg iv, 5 min, Mean±SD, read-out: plasma concentration
  level at 5 min: 6.99 ± 1.29 µg/mL
Both sexes, Wistar, rat, plasma, R15 300 U/kg iv, 15 min, Mean±SD, read-out: plasma concentration
  level at 0.25 h: 7.34 ± 1.18 µg/mL
Both sexes, Wistar, rat, plasma, R15 300 U/kg iv, 30 min, Mean±SD, read-out: plasma concentration
  level at 0.5 h: 5.88 ± 0.73 µg/mL
Both sexes, Wistar, rat, plasma, R15 300 U/kg iv, 60 min, Mean±SD, read-out: plasma concentration
  level at 1 h: 4.31 ± 1.06 µg/mL
Both sexes, Wistar, rat, plasma, R15 300 U/kg iv, 120 min, Mean±SD, read-out: plasma concentration
  level at 2 h: 1.54 ± 0.57 µg/mL
Both sexes, Wistar, rat, plasma, R15 300 U/kg iv, 240 min, Mean±SD, read-out: plasma concentration
  level at 4 h: 0.61 ± 0.15 µg/mL
Both sexes, Wistar, rat, plasma, R15 900 U/kg iv, 1 min, Mean±SD, read-out: plasma concentration
  level at 1 min: 11.5 ± 1.14 µg/mL
Both sexes, Wistar, rat, plasma, R15 900 U/kg iv, 5 min, Mean±SD, read-out: plasma concentration
  level at 5 min: 8.15 ± 0.81 µg/mL
Both sexes, Wistar, rat, plasma, R15 900 U/kg iv, 15 min, Mean±SD, read-out: plasma concentration
  level at 0.25 h: 7.23 ± 0.34 µg/mL
Both sexes, Wistar, rat, plasma, R15 900 U/kg iv, 30 min, Mean±SD, read-out: plasma concentration
  level at 0.5 h: 5.69 ± 0.65 µg/mL
Both sexes, Wistar, rat, plasma, R15 900 U/kg iv, 60 min, Mean±SD, read-out: plasma concentration
  level at 1 h: 5.11 ± 0.59 µg/mL
Both sexes, Wistar, rat, plasma, R15 900 U/kg iv, 120 min, Mean±SD, read-out: plasma concentration
  level at 2 h: 3.93 ± 0.54 µg/mL
Both sexes, Wistar, rat, plasma, R15 900 U/kg iv, 240 min, Mean±SD, read-out: plasma concentration
  level at 4 h: 1.26 ± 0.42 µg/mL
Both sexes, Wistar, rat, plasma, R15 900 U/kg iv, 360 min, Mean±SD, read-out: plasma concentration
  level at 6 h: 0.89 ± 0.21 µg/mL
Both sexes, rat, plasma, Wistar rats, intravenous infusion 2700 U/kg, time 1 min, mean of individual rats, read-out: Concentration (plasma concentration of R15), Mean±SD
  level at 1 min: 11.7 ± 2.95 µg/mL
Both sexes, rat, plasma, Wistar rats, intravenous infusion 2700 U/kg, time 5 min, mean of individual rats, read-out: Concentration (plasma concentration of R15), Mean±SD
  level at 5 min: 5.23 ± 1.64 µg/mL
Both sexes, rat, plasma, Wistar rats, intravenous infusion 2700 U/kg, time 15 min, mean of individual rats, read-out: Concentration (plasma concentration of R15), Mean±SD
  level at 0.25 h: 4.7 ± 1.43 µg/mL
Both sexes, rat, plasma, Wistar rats, intravenous infusion 2700 U/kg, time 30 min, mean of individual rats, read-out: Concentration (plasma concentration of R15), Mean±SD
  level at 0.5 h: 3.67 ± 0.92 µg/mL
Both sexes, rat, plasma, Wistar rats, intravenous infusion 2700 U/kg, time 60 min, mean of individual rats, read-out: Concentration (plasma concentration of R15), Mean±SD
  level at 1 h: 3.97 ± 0.91 µg/mL
Both sexes, rat, plasma, Wistar rats, intravenous infusion 2700 U/kg, time 120 min, mean of individual rats, read-out: Concentration (plasma concentration of R15), Mean±SD
  level at 2 h: 3.48 ± 0.58 µg/mL
Both sexes, rat, plasma, Wistar rats, intravenous infusion 2700 U/kg, time 240 min, mean of individual rats, read-out: Concentration (plasma concentration of R15), Mean±SD
  level at 4 h: 2.34 ± 0.76 µg/mL
Both sexes, rat, plasma, Wistar rats, intravenous infusion 2700 U/kg, time 360 min, mean of individual rats with determined values, read-out: Concentration (plasma concentration of R15), Mean±SD
  level at 6 h: 1.75 ± 0.44 µg/mL
Both sexes, rat, plasma, Wistar rats, intravenous infusion 2700 U/kg, time 480 min, mean of individual rats with determined values, read-out: Concentration (plasma concentration of R15), Mean±SD
  level at 8 h: 1.22 ± 0.52 µg/mL
Both sexes, rat, plasma, Wistar rats, intravenous infusion 2700 U/kg, time 600 min, mean of individual rats with determined values, read-out: Concentration (plasma concentration of R15), Mean±SD
  level at 10 h: 0.77 ± 0.14 µg/mL
Both sexes, rat, plasma, Wistar rats, intravenous infusion 2700 U/kg, time 720 min, mean of individual rats with determined values, read-out: Concentration (plasma concentration of R15), Mean±SD
  level at 12 h: 0.46 ± 0.01 µg/mL
